The target of this assay is HKU1-3CL^pro (Human coronavirus HKU1 (isolate N1) (HCoV-HKU1), UniProt P0C6X2). Kind of assay: biochemical.

Chains of the proteins cited; added tags and fusions are not shown. Residues count along the entry.
UniProt P0C6X2, 3335-3637 limits assumed: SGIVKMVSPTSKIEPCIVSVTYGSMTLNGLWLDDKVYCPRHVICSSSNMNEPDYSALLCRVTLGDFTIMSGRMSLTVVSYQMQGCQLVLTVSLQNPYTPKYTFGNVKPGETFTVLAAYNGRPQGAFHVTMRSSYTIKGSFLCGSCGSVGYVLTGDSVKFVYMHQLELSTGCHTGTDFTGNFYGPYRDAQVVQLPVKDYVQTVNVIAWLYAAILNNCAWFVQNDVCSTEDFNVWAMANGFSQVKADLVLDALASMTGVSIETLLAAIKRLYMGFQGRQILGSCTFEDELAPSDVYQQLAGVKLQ

In US9975885B2, “Broad-spectrum non-covalent coronavirus protease inhibitors” (priority 2016, dated 2018) one finds IC50 data, which are given here for one molecule.

As a reminder, the IC50 is the concentration at which inhibition is half-maximal. A low value points to greater potency.

On to `CC(C)(C)NC(=O)C(c1cccnc1)N(C(=O)c1c[nH]cn1)c1ccc(C(C)(C)C)cc1` (stereo not shown) [Compound 3P, reference compound], for which inhibition was half-maximal at 8.4 ± 0.7 µM (IC50).
